Measurements as given in US20110257139A1, “TREATMENT OF DIARRHOEA” (ROYAL COLLEGE OF SURGEONS IN IRELAND, priority 2008, published 2011).

Experiments:
Na^+/K^+ ATPase = experiment: Na^+/K^+-ATPase activity in permeabilized T84 monolayers (Ussing chambers); assay type: cell-based; conditions: GW4064 5 μM, 24 hrs
Description: To measure Na^+/K^+-ATPase activity T84 cell monolayers were mounted in Ussing chambers and bathed bilaterally in low-sodium (25 mmol/L) Ringers' solution, where NaCl was substituted with equimolar N-methyl-D-glucamine (NMDG)-Cl^−. Apical membranes were permeabilized with amphotericin (50 μmol/L). Under these conditions (ie: in the absence of ionic gradients across the permeabilized monolayer) changes in Isc are wholly reflective of electrogenic transport through the Na^+/K^+-ATPase.

FXR = molecular target: T1, FXR (Homo sapiens, UniProt Q96RI1); experiment: Subcellular localization of FXR by immunocytochemistry and confocal microscopy; assay type: cell-based; conditions: 5 μM, 24 hr
T1 construct: endogenous in cells; host or cells: T84 cells
T1 sequence (Q96RI1 1-486): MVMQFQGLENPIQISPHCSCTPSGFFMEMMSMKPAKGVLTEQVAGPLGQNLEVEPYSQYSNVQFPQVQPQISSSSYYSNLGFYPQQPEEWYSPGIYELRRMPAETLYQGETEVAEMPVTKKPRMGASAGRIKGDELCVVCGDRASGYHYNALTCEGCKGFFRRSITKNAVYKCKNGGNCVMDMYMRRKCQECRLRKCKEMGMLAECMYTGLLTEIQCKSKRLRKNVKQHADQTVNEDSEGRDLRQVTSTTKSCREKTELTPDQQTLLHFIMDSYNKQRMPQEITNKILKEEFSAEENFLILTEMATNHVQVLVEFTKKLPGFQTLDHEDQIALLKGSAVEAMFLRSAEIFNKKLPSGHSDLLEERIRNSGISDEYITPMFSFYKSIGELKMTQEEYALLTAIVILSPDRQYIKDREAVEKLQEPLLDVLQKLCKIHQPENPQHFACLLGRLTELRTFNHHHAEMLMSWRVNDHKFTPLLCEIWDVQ
Procedure: Confocal Microscopy: T84 cells, plated onto Cell-Tack coated chamber slides were fixed in paraformaldehyde and permeabilised in Triton X-100. Samples were incubated with antibodies against FXR, washed and then incubated with fluorescence-conjugated secondary antibodies. Cells were visualised using an LSM 510 META laser scanning confocal microscope.
GW4064 stimulates FXR translocation to the nucleus. Subcellular localization of FXR (green) following treatment with the FXR agonist, GW4064 was investigated by immunocytochemistry and confocal microscopy. […] FIG. 3

**Q.** Which “Na^+/K^+ ATPase activity” value (Na^+/K^+ ATPase) does the source give for GW4064 here?
**A.** inhibited

**Q.** What about the “FXR translocation from the cytoplasm to the nucleus” value (FXR) of the same substance?
**A.** promoted the translocation of FXR from the cytoplasm to the nucleus
